The entries are a selection whose mix differs from that of the whole data set. Calls of active or inactive are those of the source. Cut-off read from the data, not from the text of the source: active = inhibition above about 8.5% (passing the limit was not always enough); inconclusive = no clear call, values can overlap the other calls.

The assay has as its system Mycobacterium tuberculosis FadD28 fatty-acid-AMP ligase. Briefly: inhibitors of FadD28 bisubstrate probe binding, primary screen, biochemical, fluorescence polarization, single point (AID 588549). Particulars: at 12.5 µM, hits give high values. On the technique in general: In fluorescence polarisation assays a small probe gives low polarisation when free and higher when bound to something large.
Consider `CCC(=O)N(c1ccccc1)C1(COC)CCN(CCn2nnn(CC)c2=O)CC1`, for which the inhibition (commonly the relative decrease from the control value, in per cent) was inactive: -5.52%.

For `CCC(=O)N(c1ccccc1)C1(COC)CCN(CCc2cccs2)CC1`, the inhibition was inactive: 1.41%.

Values taken from PubChem BioAssay AID588549 (Broad Institute, 2011).
